# Ab-95 light chain CDR variants: yeast mating affinities

Target peptide (SARS-CoV-2 spike, HR2 region): PDVDLGDISGINAS

Parent: Ab-95, a human scFv built as VH, a 15-residue (Gly4Ser)3 linker, VL. Only the CDRs of the light chain vary.
VH: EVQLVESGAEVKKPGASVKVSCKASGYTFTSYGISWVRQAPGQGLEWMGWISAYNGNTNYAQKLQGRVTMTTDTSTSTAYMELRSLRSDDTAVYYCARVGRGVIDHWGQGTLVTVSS
VL: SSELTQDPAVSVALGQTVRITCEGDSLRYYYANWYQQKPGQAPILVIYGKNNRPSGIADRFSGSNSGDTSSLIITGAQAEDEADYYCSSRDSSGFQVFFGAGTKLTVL

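The starting antibody came from a phage panning campaign against this peptide. In library AAYL52, one, two or three CDR residues were substituted; doubles and triples were drawn at random. AlphaSeq pools MATa yeast showing the antibodies with MATalpha yeast showing the peptide. After mating in shaken culture at 30 °C for 16 h, diploids were selected and their barcode pairs sequenced. Read counts were normalised to the haploid input and turned into Kd by a linear fit to BCL2-family pairs of known affinity, for each replicate. The assay was run in three technical replicates.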

The whole VL of each variant is written out. All variants listed here change N33 of the VL, counted from its first residue. Scale: log10 of Kd in nM, estimated from mating counts; low values are strong binders. A mean of the replicates is given; it leaves out those without a signal. "nd" marks a missing value. The strain was present, yet no cells mated with the target were sequenced in any replicate, which points to weak or no binding. Empty control strains, which show no peptide, gave a signal in 28% of pairings with library AAYL52; the median was 3.91 and 95% of these signals were weaker than 2.90. No background was subtracted. For each scFv, signals with the empty controls are counted beside the result.

Variant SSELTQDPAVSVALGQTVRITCEGDSLRYTYLWWYQQKPGQAPILVIYGKNNRPSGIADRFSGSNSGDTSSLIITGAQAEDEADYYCSSRDSSGFQVFFGAGTKLTVL showed 3.42 (1 of 3 replicates; controls 3 of 9).
Variant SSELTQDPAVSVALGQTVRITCEGVSLRYYYAFWYQQKPGQAPILVIYGKNGRPSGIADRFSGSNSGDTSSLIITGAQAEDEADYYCSSRDSSGFQVFFGAGTKLTVL showed 2.85 (1 of 3 replicates; controls 1 of 9).
Variant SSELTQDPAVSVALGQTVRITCEGDSLRYYYALWYQQKPGQAPILVIYGKNNRPSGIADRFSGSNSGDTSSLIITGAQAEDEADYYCSSIQSSGFQVFFGAGTKLTVL showed 4.77 (1 of 3 replicates; controls 0 of 9).
Variant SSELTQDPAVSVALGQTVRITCEGDSLRYYYAAWYQQKPGQAPILVIYGKNNRPSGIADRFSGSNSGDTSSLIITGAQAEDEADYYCSSRDSSGFQLHFGAGTKLTVL showed nd (0 of 3 replicates; controls 3 of 9).
Variant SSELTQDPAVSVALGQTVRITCEGDSLRYYYSHWYQQKPGQAPILVIYGKNNRISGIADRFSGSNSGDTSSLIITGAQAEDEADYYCSSRDSSGFQVFFGAGTKLTVL showed 4.50 (2 of 3 replicates; controls 5 of 9).
Variant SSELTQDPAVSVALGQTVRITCEGDSLTYYYARWYQQKPGQAPILVIYGKNNRGSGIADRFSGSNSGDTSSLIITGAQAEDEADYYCSSRDSSGFQVFFGAGTKLTVL showed 4.76 (2 of 3 replicates; controls 3 of 9).
Variant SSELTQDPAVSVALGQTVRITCEGDSLRYYYAQWYQQKPGQAPILVIYGKNNRPFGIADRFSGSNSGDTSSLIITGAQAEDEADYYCSSRDSSGFQVWFGAGTKLTVL showed 3.92 (3 of 3 replicates; controls 2 of 9).
Variant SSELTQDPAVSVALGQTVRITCERDSLRYYYAAWYQQKPGQAPILVIYGKNNRPSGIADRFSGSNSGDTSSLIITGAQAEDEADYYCSSRDSSGFNVFFGAGTKLTVL showed 3.85 (2 of 3 replicates; controls 2 of 9).
Variant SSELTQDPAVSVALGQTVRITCEGDSLRYYYAVWYQQKPGQAPILVIYGKNNRPSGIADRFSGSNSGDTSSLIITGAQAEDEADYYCSSRDSSGFQVLFGAGTKLTVL showed 3.72 (1 of 3 replicates; controls 2 of 9).
Variant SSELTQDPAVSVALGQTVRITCEGDSLRYYYAKWYQQKPGQAPILVIYHKNNRPSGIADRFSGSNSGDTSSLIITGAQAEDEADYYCSSRDSSSFQVFFGAGTKLTVL showed 3.92 (2 of 3 replicates; controls 3 of 9).
Variant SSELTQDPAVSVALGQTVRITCEGDSLRYYYALWYQQKPGQAPILVIYGKNNRPSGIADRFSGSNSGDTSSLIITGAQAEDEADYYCSGRDSSGFIVFFGAGTKLTVL showed nd (0 of 3 replicates; controls 1 of 9).
Variant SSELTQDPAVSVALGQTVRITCEGDSLTYYMADWYQQKPGQAPILVIYGKNNRPSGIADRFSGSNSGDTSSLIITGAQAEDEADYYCSSRDSSGFQVFFGAGTKLTVL showed 3.78 (2 of 3 replicates; controls 0 of 9).
Variant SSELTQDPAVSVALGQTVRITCEGDSLRYYYALWYQQKPGQAPILVIYGKNNRPSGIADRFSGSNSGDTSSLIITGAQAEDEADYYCSSRDSFGFQVFFGAGTKLTVL showed 3.87 (2 of 3 replicates; controls 4 of 9).
Variant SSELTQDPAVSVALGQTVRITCEGDSYRYYYAWWYQQKPGQAPILVIYGKNNRPSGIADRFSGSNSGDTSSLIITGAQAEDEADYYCSSRDSSGFQDFFGAGTKLTVL showed 3.92 (1 of 3 replicates; controls 3 of 9).
Variant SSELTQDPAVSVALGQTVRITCEGDSLRYYYAKWYQQKPGQAPILVIYGLNNRPSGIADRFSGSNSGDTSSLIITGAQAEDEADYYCSSRWSSGFQVFFGAGTKLTVL showed 3.51 (1 of 3 replicates; controls 4 of 9).

The first 2 entries again:

The variant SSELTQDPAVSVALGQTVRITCEGDSLRYTYLWWYQQKPGQAPILVIYGKNNRPSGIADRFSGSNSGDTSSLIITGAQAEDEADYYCSSRDSSGFQVFFGAGTKLTVL showed 3.42 (1 of 3 replicates; controls 3 of 9).
The variant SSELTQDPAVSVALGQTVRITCEGVSLRYYYAFWYQQKPGQAPILVIYGKNGRPSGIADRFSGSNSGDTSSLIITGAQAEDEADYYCSSRDSSGFQVFFGAGTKLTVL showed 2.85 (1 of 3 replicates; controls 1 of 9).

Values reported by Engelhart et al. 2022, doi:10.1038/s41597-022-01779-4 (FLAb copy).